Reference: US10709119B2, “Methods of agent delivery into eggs and embryos of egg-producing aquatic animals for drug screening, agent toxicity assay and production of infertile fish” (University of Maryland Baltimore County, priority 2015, dated 2020)

Test system: zebrafish eggs
Assay: Incubation of zebrafish eggs with poly-arginine, bright field microscopy (aggregates, chorion lysis)
Format: in vivo
Details: after 18 hours incubation
Procedure: 40 zebrafish eggs were transferred into each well of 48-well plates that contained 300 μl of fresh tank system water. After the allocation of eggs, system water in each well was replaced with 300 μl of water that contained 10 or 100 μM of poly-arginine (9-arginine polymer). After 18 hours of incubation the eggs were examined using an Axioplan 2 fluorescence microscope (ZEISS, Thornwood, N.Y., USA). The microscope is equipped with a DP70 digital camera (Olympus, Center Valley, Pa., USA).

## N=C(N)NCCC[C@H](NC(=O)[C@H](CCCNC(=N)N)NC(=O)[C@H](CCCNC(=N)N)NC(=O)[C@H](CCCNC(=N)N)NC(=O)[C@H](CCCNC(=N)N)NC(=O)[C@H](CCCNC(=N)N)NC(=O)[C@H](CCCNC(=N)N)NC(=O)[C@H](CCCNC(=N)N)NC(=O)[C@@H](N)CCCNC(=N)N)C(=O)O [poly-arginine/9 mer]
10 μM
  chorion lysis: not seen
100 μM
  chorion lysis: caused chorion lysis
